Laboratory results reported in paper PMC7193897.

Columns and labels:
CCCC(=O)N[C@H]1CCOC1=O = assay: purified protein; conditions: pH 8.3
[1] = tested on: CCCCCCCCCC(=O)CC(=O)N[C@H]1CCOC1=O; assay: purified protein; conditions: pH 8.3

In the case of “SsoPox (Saccharolobus solfataricus P2; W263I)”, the Km (CCCC(=O)N[C@H]1CCOC1=O) is reported as “(4.3 ± 0.1) × 10^3 μM”, the kcat/Km (CCCC(=O)N[C@H]1CCOC1=O) is reported as 86 M⁻¹ s⁻¹ and the Km [1] is reported as 40 ± 10 µM. The kcat/Km [1] was 80000 M⁻¹ s⁻¹.
